The target of the assay is P-glycoprotein (Bos taurus, UniProt A0A3Q1MB23). Description: Vincristine transport/clearance across endothelial cell monolayers, in vitro BBB co-culture model. Set-up: P-glycoprotein is expressed in cultured endothelial cells; endogenous in cells; host or cells: primary bovine brain capillary endothelial cells, co-cultured with newborn rat astrocytes in the lower compartment. Format: cell-based, bovine. The settings on record: 60 min.

The chains behind the UniProt entries cited, without tags or fusion partners. Residues count along the entry.
UniProt A0A3Q1MB23, 1-1267: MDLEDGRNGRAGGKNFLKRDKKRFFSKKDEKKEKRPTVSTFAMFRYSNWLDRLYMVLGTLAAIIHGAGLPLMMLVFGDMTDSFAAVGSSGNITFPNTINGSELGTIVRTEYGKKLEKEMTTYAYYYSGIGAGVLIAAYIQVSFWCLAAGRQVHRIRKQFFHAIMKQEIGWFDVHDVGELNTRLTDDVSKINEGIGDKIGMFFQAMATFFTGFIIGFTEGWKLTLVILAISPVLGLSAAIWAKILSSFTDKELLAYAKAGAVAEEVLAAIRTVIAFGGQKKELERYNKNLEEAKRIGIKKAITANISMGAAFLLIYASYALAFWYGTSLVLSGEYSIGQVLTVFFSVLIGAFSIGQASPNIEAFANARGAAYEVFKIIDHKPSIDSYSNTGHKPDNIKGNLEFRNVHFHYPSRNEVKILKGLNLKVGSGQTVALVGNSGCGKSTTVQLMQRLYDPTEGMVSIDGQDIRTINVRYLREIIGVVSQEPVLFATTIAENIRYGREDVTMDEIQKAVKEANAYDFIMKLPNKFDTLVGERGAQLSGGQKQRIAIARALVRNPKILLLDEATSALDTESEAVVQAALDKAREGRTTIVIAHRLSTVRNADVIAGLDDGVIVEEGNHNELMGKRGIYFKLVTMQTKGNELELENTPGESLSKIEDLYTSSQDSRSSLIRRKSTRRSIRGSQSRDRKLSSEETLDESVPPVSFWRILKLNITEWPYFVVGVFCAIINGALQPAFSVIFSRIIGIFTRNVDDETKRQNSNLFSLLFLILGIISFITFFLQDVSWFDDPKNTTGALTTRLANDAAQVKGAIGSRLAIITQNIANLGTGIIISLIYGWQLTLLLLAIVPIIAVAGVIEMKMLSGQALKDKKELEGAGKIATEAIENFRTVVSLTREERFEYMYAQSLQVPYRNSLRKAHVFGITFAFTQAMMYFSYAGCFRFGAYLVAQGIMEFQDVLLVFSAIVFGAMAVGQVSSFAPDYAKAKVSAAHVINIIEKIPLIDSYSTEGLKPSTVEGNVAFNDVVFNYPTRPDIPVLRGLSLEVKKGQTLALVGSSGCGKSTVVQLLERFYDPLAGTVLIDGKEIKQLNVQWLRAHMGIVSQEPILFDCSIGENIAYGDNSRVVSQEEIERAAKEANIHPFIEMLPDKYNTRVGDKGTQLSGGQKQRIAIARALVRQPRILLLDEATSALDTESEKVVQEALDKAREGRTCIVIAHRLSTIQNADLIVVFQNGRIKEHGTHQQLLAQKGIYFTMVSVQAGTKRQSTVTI

Regarding `CC[C@]1(O)C[C@H]2CN(CCc3c([nH]c4ccccc34)[C@@](C(=O)OC)(c3cc4c(cc3OC)N(C=O)[C@H]3[C@@](O)(C(=O)OC)[C@H](OC(C)=O)[C@]5(CC)C=CCN6CC[C@]43[C@@H]65)C2)C1` [vincristine, [γ-^3H]Vincristine sulphate, reference compound], the “Percentage of vincristine transported across the endothelial cell monolayers” value stood at 6.76±0.44% (Example 4, 50 nM vincristine without verapamil) and 1.46±0.21% (Example 5, vincristine without verapamil).

(Values after patent US6605638B1, “Use of branched chain fatty acids and derivatives thereof for inhibition of P-glycoprotein” (D-Pharm Limited, priority 2000, dated 2003).)
